# Source: PubChem BioAssay (National Center for Advancing Translational Sciences (NCATS))
# Rows were chosen to be rich in hits. Some 0.46% of all compounds tested hit in one or more screens of this group.
# miR-21 reporter – raises the signal of a miR-21 reporter; Potency, µM (doses to about 38.3 µM); HeLa miR-21 FLuc reporter, luciferase, 48 h; AID 2288; 340,000 tested, under 10 active; active = well fitted rising curve with a large enough effect; inconclusive = small, poorly fitted or top-dose-only effect; inactive = no such curve, though single readings can be large or run the other way;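 further: miR-21 action dims this reporter so a rising signal means less miR-21 action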
#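 Using DMEM plus 10% FBS, HeLa miR-21-FLuc cells are incubated with test compounds (final up to about 40uM) for 48 hours; firefly luciferase signal is then imaged following reagent-mediated lysis.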
# PKM2 activator – activators of human pyruvate kinase M2. P14618. 260,000 tested, 0.34% active. purified PKM2, Kinase-Glo ATP luminescence, activation; response scale: 0% is enzyme alone, no compound. Potency, µM (top dose mostly 57.5 µM), usual class: activators; note: nearly all actives have a fitted effect of over 55% in size
#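 Kinase-Glo luminescence reports ATP generated from ADP (0.1 mM) and PEP (0.5 mM) by purified hPK-M2 after 1 h at room temperature, pH 7.2 imidazole buffer; intermediate enzyme activity allows detecting inhibitors and activators.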
# B2AR arrestin – recruits beta-arrestin to the human beta2-adrenergic receptor; 330,000 tested, 0.02% active; P07550; beta-arrestin recruitment to beta2AR, cell-based reporter; Potency, µM (highest dose often 46.1 µM), usual class: activators; AID 492947; note: nearly all actives have a fitted effect of over 65% in size
# Pin1 inhibitor – blocks the human prolyl isomerase Pin1; Potency, µM (series often up to 115 µM), actives largely listed as inhibitors; Q13526; 390,000 tested, 0.009% active; Pin1 FP peptide displacement, HiFluor488, 10 min; AID 504891; active = well fitted inhibition curve with a large enough effect in the polarisation, with a control signal flat, not every such curve was filed as active; inconclusive = small, poorly fitted or top-dose-only effect, or effect the other way, or a change in a side signal; inactive = no such curve, though single readings can be large or run the other way; the % refers to the polarisation
# PINK1 expr mod – PINK1 expression modulation; PINK1 immunofluorescence, high-content cytometry, 24 h; Potency, µM (top dose mostly 76.6 µM), hits mostly activators; 410,000 tested, 0.2% active; AID 624263; active = well fitted activation curve with a large enough effect; inconclusive = small, poorly fitted or top-dose-only effect; cell line not stated here; note: nearly all actives have a fitted effect of over 65% in size
#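 Fluorescence from anti-PINK1 antibody, together with nuclear and cell stains, was scanned on a laser-scanning cytometer. Before staining, stable-line cells were incubated 24 hours with compounds at 5 concentrations; primary antibody 12 h at 10 degrees C.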
# Chronic BCR inh – blocks chronic active B-cell receptor signaling; Potency, µM (titrated, usually from 46.1 µM), actives largely listed as inhibitors; AID 493014; ABC-DLBCL IkBa-CBG/CBR reporter, luminescence ratio, 4 h; 340,000 tested, 0.05% active; active = well fitted inhibition curve with a large enough effect in the signal ratio, with a control signal flat, not every such curve was filed as active; inconclusive = small, poorly fitted or top-dose-only effect, or effect the other way, or a change in a side signal; the % refers to the signal ratio
#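 Compounds up to 46 uM were incubated four hours with TMD8 cells whose green CBG68 luciferase is fused to IkappaBalpha; red CBR luminescence normalised the signal, and concentration-effect curves were fitted to fusion, red and ratio data.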
# Numbers stand for hits; i = inactive; ? = inconclusive; nt = no result. Unless noted, calls come from the whole dose curve; as a rule, active = well fitted curve in the direction sought with a large enough effect; inconclusive = small, poorly fitted or top-dose-only effect, or another doubt; inactive = no such curve, though single readings can be large; an effect the other way counts as inactive or inconclusive.
SMILES,miR-21 reporter,PKM2 activator,B2AR arrestin,Pin1 inhibitor,PINK1 expr mod,Chronic BCR inh
COc1cc([N+](=O)[O-])ccc1NC(=O)CSc1nccn1C,i,12.6µM,i,i,i,?
COC(=O)C1CCN(Cc2ccc3c(c2)CN(C(=O)C2Cc4ccccc4O2)CCO3)CC1 (configuration not stated),nt,nt,nt,nt,i,nt
Cc1cc(N2C(=O)c3ccccc3C2=O)n[nH]1,nt,nt,nt,i,nt,nt
CC(C)c1c(C(=O)NCc2ccncc2)cnn1-c1nccc(-c2cccs2)n1,nt,nt,nt,nt,i,nt
COC(=O)c1cccc(S(=O)(=O)N(Cc2ccco2)Cc2cc3ccc(OC)cc3[nH]c2=O)c1,i,i,i,i,14.1µM,i
Cc1nc2sccn2c1CN1CCOc2ccc(CN3C[C@@H](C)O[C@@H](C)C3)cc2C1,nt,nt,nt,nt,i,nt
O=C(Nc1nc2c(Cl)cccc2s1)c1ccc(Br)o1,i,i,i,i,14.1µM,?
O=C(Nc1cccc(Cl)c1Cl)c1snnc1-c1ccccc1,i,i,i,i,i,i
O=C(Nc1cc(Cl)ccc1O)c1snnc1-c1ccccc1,i,i,i,i,11.2µM,?
Cc1cc(C)nc(/N=C(\N)Nc2ccc(C(C)C)cc2)n1,?,i,i,i,39.8µM,i
Cc1ccc(N/C(N)=N/c2nc(C)cc(C)n2)cc1,i,i,i,i,i,?
Cc1ccc([N+](=O)[O-])cc1N=Nc1c(C)[nH]n(C(N)=S)c1=O,i,nt,i,i,i,?
Cc1ccc([N+](=O)[O-])cc1N=Nc1c(-c2ccc([N+](=O)[O-])cc2)[nH]n(C(N)=S)c1=O,?,i,0.708µM,nt,2.82µM,?
NC(=S)n1[nH]c(-c2ccc([N+](=O)[O-])cc2)c(N=Nc2ccc(Cl)cc2)c1=O,i,i,15.8µM,?,11.2µM,10µM
COc1cccc(C(=O)Nc2sc3c(c2C#N)CCN(C(C)=O)C3)c1,i,i,i,i,i,20µM
COc1cccc(C2c3c(ncn(-c4ccccc4C#N)c3=N)Oc3ccc4ccccc4c32)c1 (configuration not stated),nt,nt,nt,i,nt,nt
c1ccc2c(Nc3ccc4c(c3)OCCO4)c3c(nc2c1)CCC3,i,i,i,i,39.8µM,?
CC(C)(C)C1CCC2(CC1)C(C#N)=C(SCC(=O)Nc1ccccc1)NC(=O)C2C#N (configuration not stated),i,i,i,i,22.4µM,?
CCN1C/C(=C/c2cccs2)c2nc3ccccc3c(C(=O)O)c2C1,i,i,i,?,i,i
CCc1ccc(/C=C2\CN(CC)Cc3c2nc2ccccc2c3C(=O)O)cc1,i,12.6µM,i,?,i,i
O=C(NCc1ccncc1)c1cnn(-c2ncc3c(n2)-c2ccccc2CC3)c1C1CC1,nt,nt,nt,nt,i,nt
O=C(NCc1cccnc1)c1cc(-c2ccco2)on1,i,22.4µM,i,i,i,?
Cc1ccc(-c2cc(C(=O)NCc3cccnc3)no2)cc1,i,i,i,i,i,i
O=C(NCCN1Cc2ccccc2OC(c2ccccc2F)C1)c1cncs1 (configuration not stated),nt,nt,nt,nt,i,nt
NC(=O)C1CCN(c2nccc(Cl)n2)CC1,nt,nt,nt,i,nt,nt
SMILES,miR-21 reporter,PKM2 activator,B2AR arrestin,Pin1 inhibitor,PINK1 expr mod,Chronic BCR inh
CCOc1cc(C(=O)NCCN2C(=O)S/C(=C\c3cccnc3)C2=O)cc(OCC)c1OCC,i,17.8µM,i,i,i,i
CC(C)CN(C(=O)COC(=O)c1ccc([N+](=O)[O-])s1)c1c(N)n(Cc2ccccc2)c(=O)[nH]c1=O,nt,nt,i,i,39.8µM,i
CC(C)CN(C(=O)COC(=O)c1cccs1)c1c(N)n(Cc2ccccc2)c(=O)[nH]c1=O,nt,nt,nt,nt,i,nt
COc1cccc(C2c3c(ncn(-c4ccccc4C(C)(C)C)c3=N)Oc3ccc4ccccc4c32)c1 (configuration not stated),nt,nt,nt,i,nt,nt
COc1ccc(-n2c(SCC(=O)NCC3CCCO3)nc3ccccc32)cc1 (configuration not stated),i,i,i,i,i,?
N#CCCn1c(SCC(=O)NCC2CCCO2)nc2ccccc21 (configuration not stated),i,20µM,i,i,i,i
